Reference: article PMC2911641

Biological target: T1, IκBα-EYFP, P25963
T1 chain: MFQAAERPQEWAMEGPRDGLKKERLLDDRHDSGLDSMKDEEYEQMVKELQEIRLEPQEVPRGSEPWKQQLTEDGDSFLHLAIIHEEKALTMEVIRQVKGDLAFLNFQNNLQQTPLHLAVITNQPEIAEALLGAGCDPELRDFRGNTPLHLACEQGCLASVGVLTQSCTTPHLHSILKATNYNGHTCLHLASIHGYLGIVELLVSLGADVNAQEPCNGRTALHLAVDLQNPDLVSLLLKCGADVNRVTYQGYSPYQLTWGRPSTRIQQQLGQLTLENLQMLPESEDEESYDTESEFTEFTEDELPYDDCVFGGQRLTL
Test: FRET or BRET
Conditions: remark: other sources report otherwise

- increase of donor (IκBα-EYFP) fluorescence on switching the acceptor OFF: 6 to 7%
B1: rsTagRFP-p65, Q04206 1-551 (natural protein)
chain: MDELFPLIFPAEPAQASGPYVEIIEQPKQRGMRFRYKCEGRSAGSIPGERSTDTTKTHPTIKINGYTGPGTVRISLVTKDPPHRPHPHELVGKDCRDGFYEAELCPDRCIHSFQNLGIQCVKKRDLEQAISQRIQTNNNPFQVPIEEQRGDYDLNAVRLCFQVTVRDPSGRPLRLPPVLSHPIFDNRAPNTAELKICRVNRNSGSCLGGDEIFLLCDKVQKEDIEVYFTGPGWEARGSFSQADVHRQVAIVFRTPPYADPSLQAPVRVSMQLRRPSDRELSEPMEFQYLPDTDDRHRIEEKRKRTYETFKSIMKKSPFSGPTDPRPPPRRIAVPSRSSASVPKPAPQPYPFTSSLSTINYDEFPTMVFPSGQISQASALAPAPPQVLPQAPAPAPAPAMVSALAQAPAPVPVLAPGPPQAVAPPAPKPTQAGEGTLSEALLQLQFDDEDLGALLGNSTDPAVFTDLASVDNSEFQQLLNQGIPVAPHTTEPMLMEYPEAITRLVTGAQRPPDPAPAPLGAPGLPNGLLSGDEDFSSIADMDFSALLSQISS
